Data as given in patent US9175357B2, “Fragment ligated inhibitors selective for the polo box domain of PLK1” (UNIVERSITY OF SOUTH CAROLINA, priority 2011, dated 2015).

Sequences of proteins named here, by UniProt entry; tags and fusion partners are left off. Residues count along the entry.
UniProt P53350, 367-603: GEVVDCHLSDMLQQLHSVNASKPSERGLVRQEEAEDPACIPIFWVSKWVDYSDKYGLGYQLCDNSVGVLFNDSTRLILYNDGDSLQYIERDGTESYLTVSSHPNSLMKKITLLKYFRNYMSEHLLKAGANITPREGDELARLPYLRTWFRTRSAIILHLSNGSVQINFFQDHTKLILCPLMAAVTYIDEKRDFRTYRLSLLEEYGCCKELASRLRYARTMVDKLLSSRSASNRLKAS

Molecular target: PLK1 PBD protein (residues 367-603) (Homo sapiens (Human), UniProt P53350)
Test: Competitive fluorescence polarization (FP) binding assay, PLK1 PBD

## CC(=O)N1CCC[C@H]1C(=O)N[C@@H](CC(C)C)C(=O)N[C@@H](Cc1c[nH]cn1)C(=O)N[C@@H](CO)C(=O)N[C@H](C(=O)N[C@@H](C)C(=O)O)[C@@H](C)OP(=O)(O)O [compound 5743, Ac-PLHS[pT]A, reference compound]
Table 2, FP assay, read-out: IC50
  IC50: 2 µM
read-out: PLK1 PBD IC50, Table 1
  IC50: 2 µM

Read-outs that look alike come from different tables or passages of the source.
